The assay concerns 9L. Put plainly: Intracranial local drug delivery by polymer implant in rat glioma model, median survival (Table 1 summary). Format: in vivo.

With `O=P1(N(CCCl)CCCl)NC(O)CCO1` (stereo not shown), the “Median survival in days, Rx group” value (p(CPP:SA) 20% load, Rx day 5, tumor 1 × 1 × 1 mm^3, controls 14, n = 8) came to 44.5 days and the “Median survival in days, Rx group” value (p(FAD:SA) 20% load, Rx day 3, tumor 1 × 1 × 1 mm^3, controls 14, n = 10) was determined as 77 days. Also, the “% increase survival” value is on record as 218% (p(CPP:SA) 20% load, Rx day 5, controls 14) and 450% (p(FAD:SA) 20% load, Rx day 3).

The record behind these values is patent publication USRE37410E, “Controlled local delivery of chemotherapeutic agents for treating solid tumors” (priority 1999, dated 2001).
